How the values were obtained:
[1] = biological target: T1, EGFR (Homo sapiens (Human), UniProt P00533); experiment: HTRF KinEASE-TK kinase assay, EGFR; assay type: biochemical; settings: 3 h preincubation
[2] = biological target: T1, EGFR; experiment: A549 cell lysis and immunoassay, phospho-EGFR (Y1068) inhibition; settings: A549 cells
[3] = biological target: T1, EGFR; experiment: A549 cell lysis and immunoassay, total EGFR degradation; settings: A549 cells
[4] = biological target: T2, BTK (Homo sapiens (Human), UniProt Q06187); experiment: HTRF KinEASE-TK kinase assay, BTK; assay type: biochemical; settings: 3 h preincubation
[5] = biological target: T2, BTK; experiment: Ramos RA1 cell lysis and immunoassay, phospho-BTK (Y223) inhibition; settings: RAMOS cells, compound concentration 1 μM
[6] = biological target: T2, BTK; experiment: Ramos RA1 cell lysis and immunoassay, total BTK degradation; settings: RAMOS cells
[7] = biological target: BMX (Homo sapiens (Human), UniProt P51813); experiment: HTRF KinEASE-TK kinase assay, BMX; assay type: biochemical
Protocol: (§1) Kinase activity was monitored using a HTRF® KinEASE-TK kit from Cisbio (62TK0PEC). […] BMX was purchased from Promega. 0.333 ng/ul BMX (3.03 nM) was preincubated in the absence or presence of inhibitor at room temperature for 3 hours. The reaction with substrate was then initiated by adding biotinylated substrate and ATP. […] Reaction was terminated by adding 31.25 nM SA-XL665 and 100 fold diluted europium labelled antibody (Eu-Ab), diluted in 1× detection buffer that contained EDTA. After 60 min of incubation, the fluorescence emission was measured at 620 nm and 665 nm. The ratio of Em 665 nm to Em 620 nm was proportional to the amount of substrate phosphorylated by the kinase. […] The top 13 compounds together with known inhibitor Ibrutinib were further selected for dose response analysis where compounds were tested from final concentrations ranging from 24 μM to 25 uM.

Amino acid sequences for entries named in this document (tags omitted). Residues count along the entry.
UniProt P00533, 25-1210 limits assumed: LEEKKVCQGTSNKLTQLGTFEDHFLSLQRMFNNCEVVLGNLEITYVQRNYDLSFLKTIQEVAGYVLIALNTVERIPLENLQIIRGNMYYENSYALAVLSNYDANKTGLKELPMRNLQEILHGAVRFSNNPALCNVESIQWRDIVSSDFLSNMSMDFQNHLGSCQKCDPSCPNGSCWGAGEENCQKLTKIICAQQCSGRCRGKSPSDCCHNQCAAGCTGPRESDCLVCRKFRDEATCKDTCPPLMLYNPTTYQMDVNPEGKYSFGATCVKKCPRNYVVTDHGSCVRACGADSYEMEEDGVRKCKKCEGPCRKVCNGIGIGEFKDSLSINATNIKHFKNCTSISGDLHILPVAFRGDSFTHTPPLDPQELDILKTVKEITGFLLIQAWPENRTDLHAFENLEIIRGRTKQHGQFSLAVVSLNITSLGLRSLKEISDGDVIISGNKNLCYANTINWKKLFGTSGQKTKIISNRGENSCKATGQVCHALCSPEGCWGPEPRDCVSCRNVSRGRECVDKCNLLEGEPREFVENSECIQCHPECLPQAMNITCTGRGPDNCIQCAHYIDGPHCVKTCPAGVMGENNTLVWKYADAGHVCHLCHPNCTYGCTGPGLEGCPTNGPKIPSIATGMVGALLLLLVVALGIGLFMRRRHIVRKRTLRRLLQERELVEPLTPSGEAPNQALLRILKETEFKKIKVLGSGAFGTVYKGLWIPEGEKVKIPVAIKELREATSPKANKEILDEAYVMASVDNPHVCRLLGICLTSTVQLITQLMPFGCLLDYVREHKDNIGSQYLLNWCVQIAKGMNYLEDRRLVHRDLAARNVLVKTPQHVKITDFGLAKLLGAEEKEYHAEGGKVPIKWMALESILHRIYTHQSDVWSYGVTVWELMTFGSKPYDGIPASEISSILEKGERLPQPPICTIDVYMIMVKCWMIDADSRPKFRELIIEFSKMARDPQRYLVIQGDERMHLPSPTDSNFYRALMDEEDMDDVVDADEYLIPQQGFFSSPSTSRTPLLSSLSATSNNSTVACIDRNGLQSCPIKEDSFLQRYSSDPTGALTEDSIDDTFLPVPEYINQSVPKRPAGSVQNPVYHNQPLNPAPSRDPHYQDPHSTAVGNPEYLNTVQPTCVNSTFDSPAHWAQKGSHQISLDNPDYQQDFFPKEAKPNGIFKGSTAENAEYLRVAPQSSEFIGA
UniProt Q06187, 2-659 limits assumed: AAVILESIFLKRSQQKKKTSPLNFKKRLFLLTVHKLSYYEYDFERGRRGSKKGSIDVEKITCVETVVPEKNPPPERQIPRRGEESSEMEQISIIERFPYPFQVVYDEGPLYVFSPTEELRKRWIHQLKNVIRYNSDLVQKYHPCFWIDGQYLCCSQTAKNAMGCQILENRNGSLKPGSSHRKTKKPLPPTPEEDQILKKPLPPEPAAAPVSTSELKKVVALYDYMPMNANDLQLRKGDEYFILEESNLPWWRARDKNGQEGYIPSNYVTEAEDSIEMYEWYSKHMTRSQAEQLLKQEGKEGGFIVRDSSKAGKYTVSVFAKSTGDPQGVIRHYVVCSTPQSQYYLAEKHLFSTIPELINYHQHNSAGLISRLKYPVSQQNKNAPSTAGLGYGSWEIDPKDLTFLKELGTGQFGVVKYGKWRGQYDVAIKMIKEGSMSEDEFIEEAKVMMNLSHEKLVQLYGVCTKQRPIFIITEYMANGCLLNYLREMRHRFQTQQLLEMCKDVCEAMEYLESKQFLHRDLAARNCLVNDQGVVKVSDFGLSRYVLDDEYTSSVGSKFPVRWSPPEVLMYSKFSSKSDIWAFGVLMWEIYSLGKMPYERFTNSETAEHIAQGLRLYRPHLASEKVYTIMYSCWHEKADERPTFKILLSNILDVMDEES
UniProt P51813, whole entry: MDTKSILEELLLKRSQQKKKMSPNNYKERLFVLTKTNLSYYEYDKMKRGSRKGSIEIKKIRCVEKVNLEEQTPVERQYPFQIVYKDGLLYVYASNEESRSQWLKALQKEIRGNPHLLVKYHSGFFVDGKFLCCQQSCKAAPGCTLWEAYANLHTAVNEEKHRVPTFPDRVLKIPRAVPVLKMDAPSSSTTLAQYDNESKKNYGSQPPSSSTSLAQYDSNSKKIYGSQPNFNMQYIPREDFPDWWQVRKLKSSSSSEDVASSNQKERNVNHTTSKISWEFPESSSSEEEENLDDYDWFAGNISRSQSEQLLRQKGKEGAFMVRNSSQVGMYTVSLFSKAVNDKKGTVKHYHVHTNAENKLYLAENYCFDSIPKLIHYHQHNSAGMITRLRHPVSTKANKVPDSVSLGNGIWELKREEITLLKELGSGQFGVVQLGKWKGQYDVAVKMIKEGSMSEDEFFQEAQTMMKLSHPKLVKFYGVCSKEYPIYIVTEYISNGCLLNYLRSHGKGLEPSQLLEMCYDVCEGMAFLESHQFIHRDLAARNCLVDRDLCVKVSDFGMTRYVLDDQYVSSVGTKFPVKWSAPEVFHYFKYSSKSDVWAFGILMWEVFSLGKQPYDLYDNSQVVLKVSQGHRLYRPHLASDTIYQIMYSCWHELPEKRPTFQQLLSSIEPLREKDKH
UniProt P52333, 781-1124 limits assumed: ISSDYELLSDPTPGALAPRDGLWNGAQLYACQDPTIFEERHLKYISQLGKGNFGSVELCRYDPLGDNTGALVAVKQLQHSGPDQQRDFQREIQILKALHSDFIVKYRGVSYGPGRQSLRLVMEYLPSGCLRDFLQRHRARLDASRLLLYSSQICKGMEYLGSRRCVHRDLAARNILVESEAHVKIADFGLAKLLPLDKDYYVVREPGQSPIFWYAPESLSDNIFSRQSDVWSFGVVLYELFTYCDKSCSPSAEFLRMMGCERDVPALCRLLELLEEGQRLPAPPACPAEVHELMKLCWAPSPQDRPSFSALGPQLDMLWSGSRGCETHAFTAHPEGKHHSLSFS
UniProt P22455, 22-802 limits assumed: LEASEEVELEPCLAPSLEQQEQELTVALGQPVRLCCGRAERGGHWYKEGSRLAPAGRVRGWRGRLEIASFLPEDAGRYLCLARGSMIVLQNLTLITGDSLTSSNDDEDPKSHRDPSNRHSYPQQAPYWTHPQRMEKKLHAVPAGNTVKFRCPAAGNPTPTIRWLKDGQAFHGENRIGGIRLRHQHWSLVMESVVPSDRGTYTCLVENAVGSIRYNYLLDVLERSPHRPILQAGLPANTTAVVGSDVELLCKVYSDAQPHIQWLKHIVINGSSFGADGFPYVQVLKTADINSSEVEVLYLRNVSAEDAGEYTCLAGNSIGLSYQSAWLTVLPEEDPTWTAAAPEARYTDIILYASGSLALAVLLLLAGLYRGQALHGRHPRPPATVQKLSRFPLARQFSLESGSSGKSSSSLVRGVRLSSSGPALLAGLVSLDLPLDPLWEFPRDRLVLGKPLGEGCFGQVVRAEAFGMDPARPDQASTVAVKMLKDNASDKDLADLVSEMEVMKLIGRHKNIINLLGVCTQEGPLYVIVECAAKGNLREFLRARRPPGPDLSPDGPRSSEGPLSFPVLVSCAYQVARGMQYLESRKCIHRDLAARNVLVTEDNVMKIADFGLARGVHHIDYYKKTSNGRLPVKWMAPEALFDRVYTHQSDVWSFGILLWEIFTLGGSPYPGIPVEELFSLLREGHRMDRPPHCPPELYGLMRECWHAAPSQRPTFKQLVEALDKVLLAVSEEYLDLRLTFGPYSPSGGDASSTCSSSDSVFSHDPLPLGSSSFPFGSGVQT

[8] = biological target: JAK3 (Homo sapiens (Human), UniProt P52333); experiment: HTRF KinEASE-TK kinase assay, JAK3; assay type: biochemical
Protocol: as §1, with “JAK-3” for “BMX”, “0.0133” for “0.333”, “JAK3 (0.21” for “BMX (3.03”, “Reaction” for “The reaction”, “The reaction” for “Reaction”

[9] = biological target: FGFR4 (Homo sapiens (Human), UniProt P22455); experiment: HTRF KinEASE-TK kinase assay, FGFR4; assay type: biochemical
Protocol: as §1, with “FGFR-4” for “BMX”, “FGFR4 (5.12” for “BMX (3.03”, “Reaction” for “The reaction”, “The reaction” for “Reaction”

% EGFR Remaining activity vs DMSO (1 μM, 3 h) ([1]; 1 μM compound): A (>90%)
% EGFR Remaining activity vs DMSO (10 μM, 3 h) ([1]; 10 μM compound): A (>90%)
pEGFR inhibition (A549, 1 μM, 24 h) ([2]; 1 μM): X
pEGFR inhibition (A549, compound concentration, 24 h) ([2]; compound concentration 10 μM): X
EGFR degradation (A549, 1 μM, 24 h) ([3]; 1 μM, 24 h): Y
EGFR degradation (A549, compound concentration, 24 h) ([3]; compound concentration 10, 24 h): Y
% BTK Remaining activity vs DMSO (1 μM, 3 h) ([4]; 1 μM compound): C (<50%)
% BTK Remaining activity vs DMSO (10 μM, 3 h) ([4]; 10 μM compound): C (<50%)
pBTK inhibition (RAMOS, 24 h) [5]: X
% BTK degradation (RAMOS, 1 mM, 24 h) [6]: Y
BMX - 1 uM % remaining ([7]; 1 uM compound, 3 h preincubation): C (<50%)
BMX - 10 uM % remaining ([7]; 10 uM compound, 3 h preincubation): C (<50%)
IC50 ([7]; read-out: BMX IC50, dose response): < 1 µM
% JAK3 Remaining activity vs DMSO (1 μM, 3 h) ([8]; 1 μM): B (50-90%)
% JAK3 Remaining activity vs DMSO (10 μM, 3 h) ([8]; 10 μM): C (<50%)
% FGFR4 Remaining activity vs DMSO (1 μM, 3 h) ([9]; 1 μM): B (50-90%)
% FGFR4 Remaining activity vs DMSO (10 μM, 3 h) ([9]; 10 μM): B (50-90%)
Compound: COCCOc1ccc(Nc2ncc(F)c(Nc3cccc(OCc4c(F)c(F)c(F)c(F)c4S(C)(=O)=O)c3)n2)cc1
